Reference: patent US20230312524A1, “ALPHA1A-ADRENERGIC RECEPTOR AGONISTS AND METHODS OF USE” (CuraSen Therapeutics, Inc., priority 2020, published 2023)

Protein sequences, listed by entry. Tags and fused reporters are not part of them.
UniProt P35348, whole entry: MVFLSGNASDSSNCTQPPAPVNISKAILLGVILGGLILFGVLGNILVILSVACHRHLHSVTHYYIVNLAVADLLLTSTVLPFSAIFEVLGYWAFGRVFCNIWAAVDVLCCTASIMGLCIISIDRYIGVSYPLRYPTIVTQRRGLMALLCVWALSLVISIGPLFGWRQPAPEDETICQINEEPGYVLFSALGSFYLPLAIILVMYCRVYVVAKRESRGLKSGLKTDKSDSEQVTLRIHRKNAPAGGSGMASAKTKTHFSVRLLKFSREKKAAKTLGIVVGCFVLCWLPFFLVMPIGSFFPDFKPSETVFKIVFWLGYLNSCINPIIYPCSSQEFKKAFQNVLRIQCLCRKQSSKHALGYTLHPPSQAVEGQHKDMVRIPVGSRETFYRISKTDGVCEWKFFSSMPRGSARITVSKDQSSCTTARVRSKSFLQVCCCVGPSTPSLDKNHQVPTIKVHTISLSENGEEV

Molecular target: α1A-ARS (Homo sapiens, UniProt P35348)
Test: Calcium flux assay (Calcium 6 dye) in cells expressing an α1-AR
Settings: for Average Emax: maximum effect relative to full agonist epinephrine; for Average PEC50: mean of at least three experiments

Structure (SMILES) | Average Emax | Average PEC50
Cc1cc(CC2=NCCN2)cc(OC(F)(F)F)c1 | A (A > 61%) | B (B = 8.00-6.01)
Clc1cccc(CC2=NCCN2)c1C1CCCC1 | B (B = 21-60%) | C (C ≤ 6.00)
